Measured values published in patent publication US8084457B2, “Pharmaceutically active 4,6-disubstituted aminopyrimidine derivatives as modulators of protein kinases” (Lead Discovery Center GmbH, priority 2003, dated 2011).

Protein sequences, listed by entry. Tags and fused reporters are not part of them.
UniProt P50750, whole entry: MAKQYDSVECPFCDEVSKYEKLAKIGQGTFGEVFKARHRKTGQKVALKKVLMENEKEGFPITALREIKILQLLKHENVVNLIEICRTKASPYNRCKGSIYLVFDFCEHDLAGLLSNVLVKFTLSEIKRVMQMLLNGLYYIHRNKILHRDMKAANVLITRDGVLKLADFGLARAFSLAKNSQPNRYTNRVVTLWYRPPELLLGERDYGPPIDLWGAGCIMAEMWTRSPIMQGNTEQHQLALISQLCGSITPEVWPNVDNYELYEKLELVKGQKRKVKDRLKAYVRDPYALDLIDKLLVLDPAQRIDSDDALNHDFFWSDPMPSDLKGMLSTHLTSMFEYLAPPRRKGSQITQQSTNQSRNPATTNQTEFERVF
UniProt O60563, whole entry partner: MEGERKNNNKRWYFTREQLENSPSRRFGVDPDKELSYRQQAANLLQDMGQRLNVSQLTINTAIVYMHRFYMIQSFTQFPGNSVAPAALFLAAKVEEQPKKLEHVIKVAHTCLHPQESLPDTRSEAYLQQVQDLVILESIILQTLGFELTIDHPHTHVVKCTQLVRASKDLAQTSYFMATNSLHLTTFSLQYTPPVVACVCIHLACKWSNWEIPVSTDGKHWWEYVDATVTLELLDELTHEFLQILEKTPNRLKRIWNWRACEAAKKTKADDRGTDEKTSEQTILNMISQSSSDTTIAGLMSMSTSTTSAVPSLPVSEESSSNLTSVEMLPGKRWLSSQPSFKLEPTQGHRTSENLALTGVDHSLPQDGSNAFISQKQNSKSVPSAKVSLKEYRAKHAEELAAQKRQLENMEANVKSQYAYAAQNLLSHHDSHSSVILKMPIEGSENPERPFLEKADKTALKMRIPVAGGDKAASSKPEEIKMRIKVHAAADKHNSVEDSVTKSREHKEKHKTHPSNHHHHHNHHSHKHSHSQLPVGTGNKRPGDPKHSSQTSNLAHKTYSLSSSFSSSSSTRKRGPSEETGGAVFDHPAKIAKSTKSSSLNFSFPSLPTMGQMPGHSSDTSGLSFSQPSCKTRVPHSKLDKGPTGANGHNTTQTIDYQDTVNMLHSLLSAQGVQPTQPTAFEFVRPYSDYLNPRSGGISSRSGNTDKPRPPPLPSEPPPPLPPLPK

Biological target: CDK9/Cyclin T1 (Homo sapiens, UniProt P50750)
Assay: Kinase assay using CDK9/Cyclin T1
Settings: read-out: CDK9 (activity range)

IC50	Compound
10 to 250 µM	CCCS(=O)(=O)N(c1ccc(Nc2ncnc(-c3ccccc3OC)c2C)cc1)S(=O)(=O)CCC
1 to 10 µM	COc1ccccc1-c1cc(Nc2ccc(NC(=O)c3cc4ccccc4cc3O)cc2)ncn1
